# According to PubChem BioAssay AID588453 (National Center for Advancing Translational Sciences (NCATS), 2011):
# Protein sequences, listed by entry. Tags and fused reporters are not part of them.
# UniProt O89049, whole entry: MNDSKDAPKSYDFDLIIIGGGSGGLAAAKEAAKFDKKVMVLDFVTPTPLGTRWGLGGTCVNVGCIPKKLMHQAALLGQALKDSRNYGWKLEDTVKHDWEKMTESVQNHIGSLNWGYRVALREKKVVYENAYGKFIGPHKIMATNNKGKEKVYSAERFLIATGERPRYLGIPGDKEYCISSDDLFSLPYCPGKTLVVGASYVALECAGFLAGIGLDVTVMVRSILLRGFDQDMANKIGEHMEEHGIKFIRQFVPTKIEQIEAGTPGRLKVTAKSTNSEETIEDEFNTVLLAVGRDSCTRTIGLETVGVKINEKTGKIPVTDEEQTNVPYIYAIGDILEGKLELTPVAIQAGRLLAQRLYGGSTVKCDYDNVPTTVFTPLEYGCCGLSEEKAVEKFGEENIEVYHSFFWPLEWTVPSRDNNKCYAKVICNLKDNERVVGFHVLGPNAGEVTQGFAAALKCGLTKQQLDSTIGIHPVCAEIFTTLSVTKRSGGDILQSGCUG
# This is a selection; strong and weak results do not stand in their true shares. Inconclusive results are not listed. The source made the active and inactive calls. The call rests on the fitted dose curve; in most records, active means well fitted inhibition curve with a large enough effect; inconclusive means small, poorly fitted or top-dose-only effect; inactive means no such curve, though single readings can be large or run the other way.
# Target: Thioredoxin reductase 1, cytoplasmic (Rattus norvegicus) (UniProt O89049)
# Experiment: qHTS Assay for Inhibitors of Mammalian Selenoprotein Thioredoxin Reductase 1 (TrxR1): qHTS; further: nearly all actives have a fitted effect of over 65% in size
# Conditions: recombinant rTrxR1, NADPH fluorescence consumption, selenite substrate; at 114 µM (top of the series)
# On the % scale 0 is the no-effect control and ±100 the full control effect.
row,Structure (SMILES),"activity change, negative = inhibition"
1,CCC(=O)N(c1ccccc1)C1(COC)CCN(CCn2nnn(CC)c2=O)CC1,inactive: 28.6%
2,CCC(=O)N(c1ccccc1)C1(COC)CCN(CCc2cccs2)CC1,inactive: 20.3%
